# PubChem BioAssay AID651821 (The Scripps Research Institute Molecular Screening Center, 2012)
# This is a selection; strong and weak results do not stand in their true shares. Active and inactive are the calls of the source.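 The calls were made as follows: active = inhibition above the plate cutoff, the mean of all test compounds on that plate plus 3 SD (cut at about 35% in these data); inactive = the rest.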
# Test: small molecules binding CAG repeat RNA – biochemical, fluorescence, primary screen (AID 651821);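 also: 0% = DMSO alone and 100% = 100 µM mitoxantrone as full dye displacement; higher means more dye released from RNA so lower well fluorescence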
# Details: r(CAG) RNA repeat, TO-PRO-1 dye displacement fluorescence; at 3 µM; stronger effect = higher value
row,Structure (SMILES),inhibition
1,CC(C)(C)n1nnnc1C(c1cccc2ccccc12)N1CCC(n2c(=O)[nH]c3ccccc32)CC1 (centres undefined),inactive: 10.8%
2,c1ccc(CN2CCC(Nc3ccccc3)CC2)cc1,inactive: -5.08%
3,C/C(N)=N\P(=O)(Oc1ccccc1)Oc1ccccc1,inactive: 2.54%
4,Cc1cc(N(CCCl)CCCl)ccc1C=O,inactive: -0.24%
5,O=c1[nH]c2ccccc2n1C1CCN(C(c2ccccc2)c2nnnn2C2CCCC2)CC1 (centres undefined),inactive: 4.83%
6,CCCN1CCC(Nc2cc(OC)cc(OC)c2)CC1,inactive: -8.43%
7,CN(C)C1(CNC(=O)c2cccc(C#N)c2)CCCCC1,inactive: -2.24%
8,CC(C)(C)OC(=O)N1CCC(N(C(=O)c2ccccc2)c2ccc(Cl)cc2)CC1,inactive: -9.71%
9,N#Cc1ccc(C(=O)NCC2(N3CCCCC3)CCCCC2)cc1,inactive: -2.94%
10,CCCCn1nnnc1C(c1cccc(OC)c1OC)N1CCC(n2c(=O)[nH]c3ccccc32)CC1 (centres undefined),inactive: 4.93%
11,O=C(OC1CN2CCC1CC2)C1c2ccccc2C=Cc2ccccc21 (centres undefined),inactive: -2.41%
12,O=c1[nH]c2ccccc2n1C1CCN(C(c2cccs2)c2nnnn2C2CCCC2)CC1 (centres undefined),inactive: 3.45%
13,N/C(=N\O)c1c(N)no[n+]1[O-],inactive: 0.52%
14,COc1cccc(C(c2nnnn2C(C)(C)C)N2CCC(n3c(=O)[nH]c4ccccc43)CC2)c1OC (centres undefined),inactive: 3.2%
15,CCOC(=O)N1CCC(Nc2ccc(C)cc2)CC1,inactive: -4.72%
16,COc1ccc(C(=O)NCC2(N3CCOCC3)CCCCC2)cc1OC,inactive: -9.98%
17,O=c1[nH]c2ccccc2n1C1CCN(C(c2ccnc3ccccc23)c2nnnn2C2CCCC2)CC1 (centres undefined),inactive: 6.26%
18,O=c1[nH]c2ccccc2n1C1CCN(C(c2cccs2)c2nnnn2C2CCCCC2)CC1 (centres undefined),inactive: 14%
19,NC(=O)C1(Nc2ccccc2)CCN(Cc2ccccc2)CC1,inactive: 0.53%
20,O=C(NCC1(N2CCOCC2)CCCCC1)c1cc(Br)ccc1Cl,inactive: -1.52%
21,CCCCn1nnnc1C(c1ccccc1)N1CCC(n2c(=O)[nH]c3ccccc32)CC1 (centres undefined),inactive: -1.39%
22,COc1cc(C(=O)NCC2(N3CCOCC3)CCCCC2)cc(OC)c1C,inactive: -6.95%
23,CN1CCC(Nc2ccc(Cl)cc2)CC1,inactive: -1.1%
24,CCC(CO)(C(=O)OC1CN2CCC1CC2)c1ccccc1 (centres undefined),inactive: -0.24%
25,COc1cccc(C(c2nnnn2C2CCCC2)N2CCC(n3c(=O)[nH]c4ccccc43)CC2)c1OC (centres undefined),inactive: 4.12%

row,Structure (SMILES),inhibition
1,COc1cc(OC)cc(C(=O)NCC2(N3CCOCC3)CCCCC2)c1,inactive: -9.56%
2,COc1cccc(C(=O)N(c2cc(C)cc(C)c2)C2CCN(C(=O)OC(C)(C)C)CC2)c1,inactive: -4.39%
3,CCCOc1ccc(C(=O)NCC2(N(C)C)CCCCC2)cc1,inactive: -6.33%
4,O=c1[nH]c2ccccc2n1C1CCN(C(c2cc3ccccc3o2)c2nnnn2C2CCCC2)CC1 (centres undefined),inactive: 11.7%
5,CC(C)(C)OC(=O)N1CCC(Nc2ccccc2)CC1,inactive: -4.92%
6,O=C(O)C1(Nc2ccccc2)CCN(Cc2ccccc2)CC1,inactive: -0.77%
7,NN(c1ccccc1)C1CCN(CCc2ccccc2)CC1,inactive: 1.8%
8,CCOc1ncccc1C(=O)NCC1(N2CCOCC2)CCCCC1,inactive: -8.32%
9,CN1CCC(Nc2ccc(F)c(Cl)c2)CC1,inactive: -1.28%
10,O=C(NCC1(N2CCCCC2)CCCCC1)c1ccco1,inactive: -0.02%
11,Cn1c(=O)[nH]cc(N(CCCl)CCCl)c1=O,inactive: 2.37%
12,CN(C)c1ccc(C(=O)NCC2(N3CCCCC3)CCCCC2)cc1,inactive: -2.24%
13,Cc1ccccc1NC1(C#N)CCN(Cc2ccccc2)CC1,inactive: 0.28%
14,CC(C)(C)n1nnnc1C(c1ccnc2ccccc12)N1CCC(n2c(=O)[nH]c3ccccc32)CC1 (centres undefined),inactive: 2.51%
15,CCN1CCC(Nc2cccc(F)c2)CC1,inactive: -1.57%
16,COc1ccc(C(c2nnnn2C2CCCCC2)N2CCC(n3c(=O)[nH]c4ccccc43)CC2)cc1 (centres undefined),inactive: 1.69%
17,Cc1ccc(NC2(C#N)CCN(Cc3ccccc3)CC2)cc1,inactive: -0.05%
18,Cc1ccc(C(=O)NCC2(N3CCCCC3)CCCCC2)o1,inactive: -2.24%
19,Fc1ccccc1NC1CCN(Cc2ccccc2)CC1,inactive: -1.18%
20,O=c1[nH]c2ccccc2n1C1CCN(C(c2ccnc3ccccc23)c2nnnn2C2CCCCC2)CC1 (centres undefined),inactive: 5.28%
21,COc1cc(OC)cc(C(=O)NCC2(N3CCCCC3)CCCCC2)c1,inactive: -2.14%
22,CC(=O)N(c1ccccc1)C1CCNCC1,inactive: -0.05%
23,COc1cccc(C(c2nnnn2C2CCCCC2)N2CCC(n3c(=O)[nH]c4ccccc43)CC2)c1OC (centres undefined),inactive: 4.78%
24,CCC(c1nnnn1C1CCCCC1)N1CCC(n2c(=O)[nH]c3ccccc32)CC1 (centres undefined),inactive: 2%
